# Biological target: truncated PI3Kα (p110α/iSH2 p85α) (Homo sapiens (Human), UniProt P42336)
# Protein sequences, listed by entry. Tags and fused reporters are not part of them.
# UniProt P42336, whole entry: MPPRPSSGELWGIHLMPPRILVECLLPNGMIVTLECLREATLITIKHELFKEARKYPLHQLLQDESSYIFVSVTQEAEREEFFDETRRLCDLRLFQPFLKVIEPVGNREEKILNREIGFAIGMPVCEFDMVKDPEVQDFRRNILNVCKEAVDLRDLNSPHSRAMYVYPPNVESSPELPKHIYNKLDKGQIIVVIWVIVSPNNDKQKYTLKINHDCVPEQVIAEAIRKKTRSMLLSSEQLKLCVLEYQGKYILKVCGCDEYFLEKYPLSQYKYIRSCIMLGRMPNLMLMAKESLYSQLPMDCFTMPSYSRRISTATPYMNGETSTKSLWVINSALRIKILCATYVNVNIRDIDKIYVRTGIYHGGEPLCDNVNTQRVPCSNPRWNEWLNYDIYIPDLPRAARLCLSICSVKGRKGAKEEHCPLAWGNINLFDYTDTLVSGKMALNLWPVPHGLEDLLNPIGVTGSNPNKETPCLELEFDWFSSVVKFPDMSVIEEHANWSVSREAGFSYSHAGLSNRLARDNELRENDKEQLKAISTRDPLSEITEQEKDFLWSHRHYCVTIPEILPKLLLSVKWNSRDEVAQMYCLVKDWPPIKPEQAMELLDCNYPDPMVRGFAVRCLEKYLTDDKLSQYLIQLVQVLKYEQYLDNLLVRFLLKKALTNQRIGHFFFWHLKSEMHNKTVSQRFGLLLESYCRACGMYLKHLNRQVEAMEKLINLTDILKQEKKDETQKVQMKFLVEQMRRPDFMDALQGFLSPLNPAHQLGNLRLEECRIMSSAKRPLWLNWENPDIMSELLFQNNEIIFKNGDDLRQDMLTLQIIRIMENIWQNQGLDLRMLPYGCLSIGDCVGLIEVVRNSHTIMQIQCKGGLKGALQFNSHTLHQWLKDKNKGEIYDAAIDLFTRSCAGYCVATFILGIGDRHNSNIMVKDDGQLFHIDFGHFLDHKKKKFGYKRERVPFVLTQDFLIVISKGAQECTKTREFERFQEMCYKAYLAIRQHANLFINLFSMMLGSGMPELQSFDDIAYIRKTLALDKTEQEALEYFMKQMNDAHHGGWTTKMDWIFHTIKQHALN
# Assay: PI3KA_Act fluorescence polarization kinase assay (Ki)
# Conditions: 1 mM ATP, tested form: HCl
# Excerpt: 2) p110α-iSH2 p85α Complex (Full Length p110α and p85α iSH2)(“PI3KA_Act”)
# Genes encoding for full length p110α and p85α nSH-iSH2=niSH2 (p85a aminoacids 322-600) subunits of PI3Kα complex were subcloned from existing constructs into pFASTBAC Dual vector (Life Technologies, Carlsbad, Calif.) using standard cloning procedures. Gene encoding p110α subunit was subcloned into polyhedrine promoter while gene encoding p85α niSH2 domains was subcloned into p10 promoter. Additionally, Human Rhinovirus 3C Protease (“HRV 3C”) site was introduced between nSH2 and iSH2, replacing aminoacids 431-438 of p85α with LEVLFQGP HRV 3C recognition sequence, using standard QuickChange mutagenesis protocol (Agilent Technologies, CA). Recombinant baculovirus was generated using Bac-to-Bac protocol (Life Technologies, Carlsbad, Calif.). Large scale expression was conducted in Sf21 (Life Technologies, Carlsbad, Calif.) cells at a multiplicity of infection (“MOI”)=1 for 48 hours. […]
# The biochemical assays of kinase activity of full-length PI3Kα (full-length p110α/p85a) or truncated PI3Kα (p110α/iSH2 p85a) were conducted using a fluorescence polarization format similar to the procedure of Yuan J., et al., (2011) “PF-04691502, a Potent and Selective Oral Inhibitor of PI3K and mTOR Kinases with Antitumor Activity”, Mol Cancer Ther. 10, 2189-2199. […]
compound,measurement,value
C[C@@H]1COCCN1c1nc(-c2cnc(N)nc2)c2c(n1)N([C@@]1(C)CCN(C(=O)C(C)(C)N)C1)CC2,PI3KA_Act Ki,1.040 nM

# Source: patent publication US9260439B2, “Dihydropyrrolopyrimidine derivatives” (PFIZER INC., priority 2014, dated 2016)
